Results taken from IntAct's records for PubMed 20880835.

B1: Eukaryotic translation initiation factor 4E-binding protein 1 (Homo sapiens), Q13541 (parent)
chain: MSGGSSCSQTPSRAIPATRRVVLGDGVQLPPGDYSTTPGGTLFSTTPGGTRIIYDRKFLMECRNSPVTKTPPRDLPTIPGVTSPSSDEPPMEASQSHLRNSPEDKRAGGEESQFEMDI

Variants of: B1
Conditions: with if4e_human EIF4E

Variant | effect of a mutation on the interaction
MSGGSSCSQTPSRAIPATRRVVLGDGVQLPPGDYSTTPGGTLFSTTPGGTRIIYDRKFLMKCRNSPVTKTPPRDLPTIPGVTSPSSDEPPMEASQSHLRNSPEDKRAGGEESQFEMDI [E61K] | decreasing interaction
MSGGSSCSQTPSRAIPATRRVVLGDGVQLPPGDYSTTPGGTLFSTTPGGTRIIYDRKFLTECRNSPVTKTPPRDLPTIPGVTSPSSDEPPMEASQSHLRNSPEDKRAGGEESQFEMDI [M60T] | decreasing interaction strength
MSGGSSCSQTPSRAIPATRRVVLGDGVQLPPGDYSTTPGGTLFSTTPGGTRIIYDRKFLMECRSSPVTKTPPRDLPTIPGVTSPSSDEPPMEASQSHLRNSPEDKRAGGEESQFEMDI [N64S] | decreasing interaction
MSGGSSCSQTPSRAIPATRRVVLGDGVQLPPGDYSTTPGGTLFSTTPGGTRIIYSRKFLMECRNSPVTKTPPRDLPTIPGVTSPSSDEPPMEASQSHLRNSPEDKRAGGEESQFEMDI [D55S] | decreasing interaction
MSGGSSCSQTPSRAIPATRRVVLGDGVQLPPGDYSTTPGGTLFSTTPGGTRIIYDRKFLAECRNSPVTKTPPRDLPTIPGVTSPSSDEPPMEASQSHLRNSPEDKRAGGEESQFEMDI [M60A] | decreasing interaction strength
MSGGSSCSQTPSRAIPATRRVVLGDGVQLPPGDYSTTPGGTLFSTTPGGTRIIYDRKFLMECQNSPVTKTPPRDLPTIPGVTSPSSDEPPMEASQSHLRNSPEDKRAGGEESQFEMDI [R63Q] | decreasing interaction
MSGGSSCSQTPSRAIPATRRVVLGDGVQLPPGDYSTTPGGTLFSTTPGGTRIIYDRKFLEECRNSPVTKTPPRDLPTIPGVTSPSSDEPPMEASQSHLRNSPEDKRAGGEESQFEMDI [M60E] | decreasing interaction strength
MSGGSSCSQTPSRAIPATRRVVLGDGVQLPPGDYSTTPGGTLFSTTPGGTRIIYDREFLMGCRNSPVTKTPPRDLPTIPGVTSPSSDEPPMEASQSHLRNSPEDKRAGGEESQFEMDI [K57E;E61G] | decreasing interaction
MSGGSSCSQTPSRAIPATRRVVLGDGVQLPPGDYSTTPGGTLFSTTPGGTRIIYDREFLMECRNSPVTKTPPRDLPTIPGVTSPSSDEPPMEASQSHLRNSPEDKRAGGEESQFEMDI [K57E] | decreasing interaction
